{"sequences": {"note": "Chains of the proteins cited; added tags and fusions are not shown. Residues count along the entry.", "UniProt C7FF04, 1-392 limits assumed": "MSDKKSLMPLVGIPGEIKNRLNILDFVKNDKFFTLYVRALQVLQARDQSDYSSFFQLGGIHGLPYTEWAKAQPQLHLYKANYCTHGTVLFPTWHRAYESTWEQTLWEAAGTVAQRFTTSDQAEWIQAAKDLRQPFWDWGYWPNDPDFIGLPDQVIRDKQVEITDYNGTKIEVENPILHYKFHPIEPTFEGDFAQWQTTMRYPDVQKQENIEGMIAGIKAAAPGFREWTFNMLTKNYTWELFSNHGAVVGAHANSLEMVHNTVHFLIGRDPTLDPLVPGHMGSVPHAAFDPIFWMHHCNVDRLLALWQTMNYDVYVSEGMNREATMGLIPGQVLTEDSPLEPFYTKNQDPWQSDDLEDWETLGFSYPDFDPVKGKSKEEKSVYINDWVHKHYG", "UniProt G1K3P4, 1-150 partner": "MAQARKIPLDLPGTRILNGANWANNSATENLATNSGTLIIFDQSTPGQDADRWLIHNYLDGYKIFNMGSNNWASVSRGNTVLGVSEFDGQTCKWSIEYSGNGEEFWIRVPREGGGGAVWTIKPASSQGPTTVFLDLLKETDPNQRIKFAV"}, "source": "patent US20110319347A1", "about": "“ANTIOXIDANT AGENT” (priority 2009, published 2011)"}
{"biological_target": "Mushroom tyrosinase (Agaricus bisporus, UniProt C7FF04)", "assay": "Tyrosinase inhibitory activity with L-DOPA as substrate", "format": "biochemical", "conditions": "read-out: IC50 for tyrosinase inhibition, pH 6.8, room temperature, absorbance at 475 nm for 60 seconds", "units": {"IC50": "µM"}}
{"smiles": "N[C@@H](Cn1ccc(=O)c(O)c1)C(=O)N[C@@H](Cc1c[nH]c2ccccc12)C(=O)N[C@@H](Cc1c[nH]c2ccccc12)C(=O)O", "IC50": 28.2}
{"smiles": "N[C@@H](Cn1ccc(=O)c(O)c1)C(=O)N[C@@H](Cc1c[nH]cn1)C(=O)N[C@@H](Cc1c[nH]c2ccccc12)C(=O)O", "IC50": 3.02}
{"smiles": "N[C@@H](Cn1ccc(=O)c(O)c1)C(=O)N[C@@H](Cc1c[nH]cn1)C(=O)N[C@@H](Cc1ccc(O)cc1)C(=O)O", "IC50": 8.84}
